## Binding of CDR-mutated scFvs to a peptide of the spike HR2 region

The measurements come from Engelhart et al. 2022 (doi:10.1038/s41597-022-01779-4) through the FLAb antibody collection.

Target: peptide PDVDLGDISGINAS, taken from heptad repeat 2 (HR2) of SARS-CoV-2 spike.

Parent scFv Ab-14: VH joined to VL by the linker GGGGSGGGGSGGGGS. Changes lie in the heavy chain CDRs alone.
VH: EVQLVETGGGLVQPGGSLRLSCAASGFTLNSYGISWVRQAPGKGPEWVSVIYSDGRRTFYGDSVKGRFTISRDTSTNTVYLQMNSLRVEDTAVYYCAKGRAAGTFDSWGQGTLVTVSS
VL: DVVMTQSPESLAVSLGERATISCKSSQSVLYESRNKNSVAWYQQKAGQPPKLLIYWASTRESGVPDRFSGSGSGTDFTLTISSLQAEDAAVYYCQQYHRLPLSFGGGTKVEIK

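Phage display of a naive human antibody library on the peptide gave the parent. The library (AAYL49) carries one to three amino acid substitutions per variant, with no insertions or deletions. AlphaSeq pools MATa yeast showing the antibodies with MATalpha yeast showing the peptide. Binding brings cells together so that they mate, and sequencing counts the barcode pairs among the diploids. Read counts were normalised to the haploid input and turned into Kd by a linear fit to BCL2-family pairs of known affinity, for each replicate. The assay was run in three technical replicates.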

Positions count from residue 1 of the parent VH; N30E puts E in place of N.
This list gathers variants with a substitution at N30 (VH, numbered from residue 1).
Kd is apparent (estimated from mating counts) and averaged on the log scale over replicates with a signal. Smaller is tighter.
A pair that was not seen in any replicate is written "no signal"; this usually means weak binding, but a binder can also be missed.

Variant N30E+G61D+D62Q showed 6.8 nM (3 of 3 replicates). With N30V+G61P+A101P the result was no signal (0 of 3 replicates). Variant N30G+K65N gave 64 nM (3 of 3 replicates). Variant G26W+N30Y+G55V gave no signal (0 of 3 replicates). With F27S+N30R+F105P the result was 54 nM (3 of 3 replicates). For N30M+S31D+D106L, the assay gave 13 nM (3 of 3 replicates). Variant N30K+S107F showed 25 nM (3 of 3 replicates). For N30L+D62Q+K65D, the assay gave 2.9 µM (2 of 3 replicates). For N30T+K65Q, the assay gave 8.2 nM (3 of 3 replicates).

Variant N30W+D62Q+S107M showed 450 nM (2 of 3 replicates). Variant N30L+D62H+G99W gave no signal (0 of 3 replicates). For N30W+G33C+S53Q, the assay gave 16 µM (1 of 3 replicates). For N30E+I34L+G103H, the assay gave 14 µM (1 of 3 replicates). For N30C+R56I+V64L, the assay gave 150 µM (1 of 3 replicates). Variant N30T+S31F+T58K showed no signal (0 of 3 replicates). Variant N30R+T104H+D106S gave 32 nM (3 of 3 replicates). With N30C+S53N+R100L the result was no signal (0 of 3 replicates). Variant N30L+K65D+A102F gave 180 nM (3 of 3 replicates).

For N30Q+A102S, the assay gave 20 µM (3 of 3 replicates). Variant N30W+S35C showed no signal (0 of 3 replicates). For N30D+F59E+D62H, the assay gave no signal (0 of 3 replicates). Variant N30G+Y60N showed no signal (0 of 3 replicates). With N30V+R57L the result was no signal (0 of 3 replicates). For L29W+N30L+S31M, the assay gave 1.3 µM (3 of 3 replicates). For N30T+R56E, the assay gave no signal (0 of 3 replicates). For N30V+T104N+S107C, the assay gave 83 µM (1 of 3 replicates). With N30A+K65I+T104L the result was 85 µM (1 of 3 replicates).

Variant N30P+S35V gave no signal (0 of 3 replicates). Variant N30M+Y32T+A102Q gave 190 µM (2 of 3 replicates). With N30M+S31R+I51A the result was 930 nM (3 of 3 replicates). With N30P+S35R+T58N the result was no signal (0 of 3 replicates). For N30P+T104H+D106M, the assay gave 300 nM (3 of 3 replicates). Variant N30R+A101G+A102S showed no signal (0 of 3 replicates). For N30I+F105V+S107V, the assay gave 260 nM (3 of 3 replicates). With F27S+N30I+T58G the result was no signal (0 of 3 replicates). Variant N30S gave 6.0 nM (3 of 3 replicates).

Variant N30T+A102E+S107F gave 17 nM (3 of 3 replicates). With N30K+D54F the result was 3.7 µM (1 of 3 replicates). Variant N30V+Y60I+S107A gave 41 µM (2 of 3 replicates). Variant N30K+I34G+S107H showed no signal (0 of 3 replicates).

The opening 5 entries, copied out:

changes	apparent Kd	detected
N30E+G61D+D62Q	6.8 nM	3/3
N30V+G61P+A101P	no signal	0/3
N30G+K65N	64 nM	3/3
G26W+N30Y+G55V	no signal	0/3
F27S+N30R+F105P	54 nM	3/3

Empty control strains, which show no peptide, gave a signal in 15% of pairings with library AAYL49; the median was 11 µM and 95% of these signals were weaker than 680 nM. No background was subtracted.
For reference, the parent read 4.4 nM as the reference entry and 13 µM (one replicate of three) as a member of this library.